Laboratory results taken from patent US10080751B2, “Systems and methods for treating bacterial infection” (priority 2016, dated 2018).

Experiment: Second single-dose ECG study in healthy human volunteers

With `COc1cc(Cc2cnc(N)nc2N)c2c(c1OC)OC(C1CC1)C=C2` (racemic) [Iclaprim] the “subjects with a maximal QTc value >500 msec” value (0.8-mg/kg and 1.6-mg/kg doses) was “no subject” and the “subjects with post-infusion QTcF prolongation of >60 msec from baseline” value (human, in vivo) was “no subject”.
